Experimental data as given in ChEMBL document CHEMBL5154800, “Identification of N, C-capped di- and tripeptides as selective immunoproteasome inhibitors” (Eur J Med Chem, 2022).

Assay: Selectivity ratio of IC50 for inhibition of 20S proteasome beta 5c subunit (unknown origin) to IC50 for inhibition of 20S proteasome subunit beta-5i

Row | Structure (SMILES) | Ratio IC50
1 | Cc1ccc(CNC(=O)[C@H](Cc2ccccc2)NC(=O)[C@H](CCC(=O)NC(C)(C)C)NC(=O)[C@H](CNC(=O)CCl)NC(=O)CCCc2ccccc2)cc1 | 8
2 | Cc1ccc(CNC(=O)[C@H](Cc2ccccc2)NC(=O)[C@H](CCC(=O)NC(C)(C)C)NC(=O)[C@H](CNC(=O)CCl)NS(=O)(=O)c2ccc(C)cc2)cc1 | 5
3 | Cc1ccc(CNC(=O)[C@H](Cc2ccccc2)NC(=O)[C@H](CCC(=O)NC(C)(C)C)NC(=O)CCNC(=O)/C(C#N)=C/c2ccco2)cc1 | 2
4 | Cc1ccc(CNC(=O)[C@H](Cc2ccc([N+](=O)[O-])cc2)NC(=O)[C@H](CCC(=O)NC(C)(C)C)NC(=O)CCNC(=O)CCl)cc1 | 12
5 | Cc1ccc(CNC(=O)[C@H](Cc2ccc3ccccc3c2)NC(=O)[C@H](CCC(=O)NC(C)(C)C)NC(=O)CCNC(=O)CCl)cc1 | 60
6 | Cc1ccc(CNC(=O)[C@H](Cc2ccccc2)NC(=O)[C@H](CCC(=O)NC(C)(C)C)NC(=O)[C@H](CNC(=O)CCl)NC(=O)c2cc(C)on2)cc1 | 4
